# The entries are a selection whose mix differs from that of the whole data set. Activity calls are given as the source filed them. Cut-off read from the data, not from the text of the source: active = z-score mostly below about -2.9 (no sharp cut-off); inactive = mostly above about -1.9.
# System: CapD gamma-glutamyltranspeptidase (Bacillus anthracis Ames Ancestor)
# Test: Bacillus anthracis CapD inhibitors, primary screen, biochemical, fluorescence intensity (AID 492967)
# Details: purified CapD enzyme, fluorescence intensity read-out; stronger effect = lower value
row,SMILES,z-score
1,CN(CCCl)CCCl,inactive: 0.21
